Binding of CDR-mutated scFvs to a peptide of the spike HR2 region

The target is the same throughout: PDVDLGDISGINAS, from the HR2 region of SARS-CoV-2 spike.

Each scFv is VH, the linker GGGGSGGGGSGGGGS, VL, as in the parent Ab-14, and differs from it in the CDRs of the heavy chain only.
VH: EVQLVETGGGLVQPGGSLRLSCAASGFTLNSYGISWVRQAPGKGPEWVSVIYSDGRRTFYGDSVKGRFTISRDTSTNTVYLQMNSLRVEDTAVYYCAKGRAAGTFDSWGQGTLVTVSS
VL: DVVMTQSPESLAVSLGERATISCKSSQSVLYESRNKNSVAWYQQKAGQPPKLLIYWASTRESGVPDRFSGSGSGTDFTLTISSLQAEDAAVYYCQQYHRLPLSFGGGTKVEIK

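Phage display of a naive human antibody library on the peptide gave the parent. Variants in AAYL49 differ from the parent at up to three CDR positions; double and triple changes were sampled at random. The assay is AlphaSeq: two haploid yeast populations carry antibody and antigen on their surface. Mating (16 h, 30 °C) was followed by selection of diploids and sequencing of their barcodes. The ratio of observed to expected reads was calibrated, replicate by replicate, on BCL2-family standards whose Kd was known from biolayer interferometry. Mating was done three times.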

Each variant is given by its three heavy chain CDRs, as the data file delimits them; those of the parent are GFTLNSYGIS, VIYSDGRRTFYGDSVK, GRAAGTFDS.
The read-out is the apparent dissociation constant on a log10 scale (nM): the lower, the stronger.
The mean shown is taken over the replicates in which the pair was detected.
A pair that was not seen in that replicate is written "ND"; this usually means weak binding, but a binder can also be missed.
Empty control strains, which show no peptide, gave a signal in 15% of pairings with library AAYL49; the median was 4.06 and 95% of these signals were weaker than 2.83. No background was subtracted. For each scFv, signals with the empty controls are counted beside the result, with their mean in brackets.

CDR-H1	CDR-H2	CDR-H3	log10 Kd, replicates	mean, log10 nM	signal with controls
GFTLNSYGIS	FIYSDGRRTCYGDSVK	GNAAGTFDS	ND / ND / ND	ND	0 of 9
PFTLNSYGIS	VIYSDGRRTFYGDSVW	GRPAGTFDS	4.75 / ND / ND	4.75	8 of 9 (5.07)
GFTLNSYGWS	VIYSDGRRTFYGDSVK	GHAAGTFNS	5.16 / ND / 5.11	5.13	4 of 9 (3.90)
GFPLNSYGIS	VIQSDGRRTFYGDSVK	GWAAGTFDS	4.25 / 4.00 / 4.25	4.17	3 of 9 (3.98)
GFTLNSYGIS	VIYSDGRRTFYSGSVC	GRAAGTFDS	1.73 / 1.76 / 1.87	1.79	0 of 9
GFTRNSYGIS	VIYSDWRRTFYGDSVK	GRAAGTFDS	ND / ND / ND	ND	0 of 9
GHTLNSYGIS	VIYSDGRRTFYWDSVK	GRPAGTFDS	ND / ND / ND	ND	0 of 9
HFTLNSYGIS	VIYSDGPRTFYGDSVK	GRAAGTFDS	ND / 3.69 / 4.02	3.85	4 of 9 (3.99)
GFTLNSYGIS	VIYSFGRRTDYGDSVK	GRAAGTFDS	ND / ND / ND	ND	0 of 9
GFTLNSYGIS	VIYLDGRRTFYGDSVK	GRAAGLFKS	5.25 / 4.02 / ND	4.63	5 of 9 (4.64)
GFTLNSYGIS	VIYIDGRRTFYGDSVK	GPCAGTFDS	ND / ND / 4.47	4.47	7 of 9 (4.55)
GFTLNSYGMS	VIYSRGRRTFYGDSVK	GRAAGTFDS	ND / 3.66 / ND	3.66	1 of 9 (4.26)
GFTLNSYGIS	VQYSDGRRTFYGDSVK	GRAAGTCDD	ND / ND / 4.24	4.24	1 of 9 (4.64)
GFTCNSYGIS	TIYSDGTRTFYGDSVK	GRAAGTFDS	ND / ND / ND	ND	0 of 9
GFTLNSYGIS	VIYSDGRRTFYGDIVQ	GRAWGTFDS	ND / ND / ND	ND	0 of 9
GFTLNSDGIG	VIYSDGHRTFYGDSVK	GRAAGTFDS	ND / 2.83 / ND	2.83	0 of 9
GFTLNSYGIS	PIYSDGRRTFYLDSVK	GGAAGTFDS	ND / ND / ND	ND	0 of 9
GFTLNSYGIS	NIYSDGRRTFYGDSVK	GRHAGTFQS	ND / ND / ND	ND	1 of 9 (3.32)
GFTLNSYGIE	VIYSDGRRTFYEDSVK	GRAAGTFDK	ND / ND / ND	ND	0 of 9
GMTLNSYGIS	VIYSDGLRTFYGDSVK	GRAAGTFDS	1.61 / 1.50 / 1.62	1.58	1 of 9 (3.87)
MFTLNSYSIS	VIYSDGRRTFYGDSVK	GRAWGTFDS	ND / 3.68 / ND	3.68	3 of 9 (4.59)
GFKLNSYGIS	VIYSDGRRTFYGDSVK	GRAAGTWDE	ND / ND / 3.15	3.15	0 of 9
GMTLNSRGIS	VIYSDGRGTFYGDSVK	GRAAGTFDS	ND / ND / ND	ND	0 of 9
CFTANSYGVS	VIYSDGRRTFYGDSVK	GRAAGTFDS	5.18 / ND / ND	5.18	1 of 9 (3.42)
GFTVNSYGIS	VIVSDGRRTFYGDSVK	GRAAGWFDS	ND / ND / ND	ND	0 of 9
GFTLNSYPIS	VIYSDGRRTFYGDSVK	KRAFGTFDS	ND / ND / ND	ND	0 of 9
GFTENSYGIS	WIYSDGRRTFYGDSVK	GRAAHTFDS	ND / ND / ND	ND	0 of 9
GFTLNSYGIS	VIYSDGRRTFYGDYPK	GRAAFTFDS	ND / 4.00 / ND	4.00	0 of 9
VFTLNSYGIS	VIYSDWRRTFYGDSVK	GRAAGDFDS	ND / ND / ND	ND	0 of 9
LFTLNSYGGS	VIYSDGQRTFYGDSVK	GRAAGTFDS	ND / ND / 3.77	3.77	2 of 9 (4.47)
GKTLQSYGIS	VIYSDGRRTFYGDSVE	GRAAGTFDS	1.72 / 2.30 / 1.97	2.00	1 of 9 (3.40)
GFTLNSYGIS	VIYGDGRRTMYGDSVK	GRAAGTQDS	ND / ND / ND	ND	1 of 9 (3.83)
GFTLNSYGIS	VIYSDGRRTFYIDLVK	GRAAPTFDS	ND / ND / ND	ND	1 of 9 (4.16)
GFTLNSYGIS	VIYSDGRRTFYFDSVK	GRAAGTFWS	ND / 3.42 / ND	3.42	0 of 9
GFTLNSYGIS	DIYSDGIRTFYGDSVK	GRAANTFDS	ND / ND / ND	ND	0 of 9
GFTLNSYGQQ	VIISDGRRTFYGDSVK	GRAAGTFDS	ND / ND / ND	ND	0 of 9
GFTLNEYGIS	VIYSDGRRTFYGDSVA	CRAAGTFDS	ND / ND / 4.03	4.03	0 of 9
GFTLNSYGIS	VIQSDCRRTFYGDSVK	GRAAGDFDS	ND / 4.74 / 5.98	5.36	1 of 9 (3.05)
GFTFNSYGES	VIYSFGRRTFYGDSVK	GRAAGTFDS	ND / ND / ND	ND	0 of 9
GCTLNSYGIS	VIYSDGIRTFYGDSVK	GRAAETFDS	ND / ND / ND	ND	2 of 9 (3.83)
GFTTNSYGWS	VIYSDERRTFYGDSVK	GRAAGTFDS	ND / ND / ND	ND	0 of 9
GFALNSYGIS	VIYSDGRLMFYGDSVK	GRAAGTFDS	ND / 5.23 / ND	5.23	0 of 9
GFTLNSYGIS	VIYSDGRRRFYGDSGK	TRAAGTFDS	3.10 / 2.15 / 2.16	2.47	1 of 9 (3.44)
GFTLNSYGIS	VIYSKGRRTFYGDSVK	GRAAWTFDS	ND / ND / ND	ND	1 of 9 (4.71)
GNTLNSFGIS	VIYSDGRRTFYGDSVK	GRAAMTFDS	ND / ND / ND	ND	0 of 9

Repeated from above, the 5 best binders with a signal in all replicates:

CDR-H1,CDR-H2,CDR-H3,"log10 Kd, replicates","mean, log10 nM",signal with controls
GMTLNSYGIS,VIYSDGLRTFYGDSVK,GRAAGTFDS,1.61 / 1.50 / 1.62,1.58,1 of 9 (3.87)
GFTLNSYGIS,VIYSDGRRTFYSGSVC,GRAAGTFDS,1.73 / 1.76 / 1.87,1.79,0 of 9
GKTLQSYGIS,VIYSDGRRTFYGDSVE,GRAAGTFDS,1.72 / 2.30 / 1.97,2.00,1 of 9 (3.40)
GFTLNSYGIS,VIYSDGRRRFYGDSGK,TRAAGTFDS,3.10 / 2.15 / 2.16,2.47,1 of 9 (3.44)
GFPLNSYGIS,VIQSDGRRTFYGDSVK,GWAAGTFDS,4.25 / 4.00 / 4.25,4.17,3 of 9 (3.98)

Data: MIT Lincoln Laboratory AlphaSeq set, Engelhart et al. 2022, doi:10.1038/s41597-022-01779-4, as distributed in FLAb.